The numbers were not newly measured in patent US12624118B2, “Trispecific binding molecules against BCMA and uses thereof” (Novartis AG, priority 2019, dated 2026), which cites them from elsewhere.

This data set deals with EGFR mutant NSCLC. The conditions noted are these: cited from earlier work.

`Cc1cc(C(=O)Nc2nc3cccc(Cl)c3n2[C@@H]2CCCCN(C(=O)/C=C/CN(C)C)C2)ccn1` [Compound A40, (R,E)-N-(7-chloro-1-(1-(4-(dimethylamino)but-2-enoyl)azepan-3-yl)-1H-benzo[d]imidazol-2-yl)-2-methylisonicotinamide]: the efficacy in patients entry is “shown efficacy”.
